Source: patent US9586928B2 (The Scripps Research Institute, priority 2011, dated 2017)

Molecular target: T1, FXR (Homo sapiens, UniProt Q96RI1)
T1 sequence (Q96RI1 262-486 limits assumed): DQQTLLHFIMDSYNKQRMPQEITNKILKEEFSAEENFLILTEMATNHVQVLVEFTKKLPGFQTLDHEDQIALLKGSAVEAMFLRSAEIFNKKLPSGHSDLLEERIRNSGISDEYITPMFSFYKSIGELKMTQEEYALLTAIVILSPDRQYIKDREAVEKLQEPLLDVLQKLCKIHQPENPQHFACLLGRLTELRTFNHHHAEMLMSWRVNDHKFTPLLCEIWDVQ
Assay: Gal4-FXR / UAS luciferase cotransfection assay
Format: cell-based
Conditions: Gal4 chimeric cotransfection
Description: Cotransfection assays were performed as previously described in HEK293 cells (Gal4 cotransfection assay or IL-17 luciferase reporter)[8]. HEK293 and the mouse lymphoma EL4 (ATCC) cells were maintained in DMEM supplemented with 10% FBS plus antibiotics (penicillin and streptomycin; Invitrogen).
HEK293 cells were maintained in Dulbecco's modified Eagle's medium (DMEM) supplemented with 10% fetal bovine serum at 37° C. under 5% CO2. Reverse transfections were performed in bulk using 1×10^6 cells in 6 cm plates, 3 ug of total DNA in a 1:1 ratio of receptor and reporter and FuGene6 (Roche) in a 1:3 DNA:lipid ratio. Following day, cells re plated in 384 well plates at a density of 10,000 cells/well. After 4 hr, the cells were treated with the compound or DMSO as control. The luciferase levels were assayed following additional 20 hour incubation by one-step addition of BriteLite Plus (Perkin Elmer) and read using an Envision (Perkin Elmer). Data was normalized as fold change over DMSO treated cells.

effect on transcriptional activity of FXR: significant increase
Compound: CC(C)c1onc(-c2c(Cl)cccc2Cl)c1COc1ccc(/C=C/c2cccc(C(=O)O)c2)c(Cl)c1 [GW4064, reference compound]
